In ChEMBL document CHEMBL1155915, “Anticonvulsant activity of some xanthone derivatives” (Bioorg Med Chem, 2008):

Species on record: Mus musculus
Assay: Protective index, ratio of TD50 for mouse by rotarod test to ED50 for mouse by MES test
Format: functional

For NC(=O)N1c2ccccc2C=Cc2ccccc21 [CARBAMAZEPINE], the PI was 4.9.
